In ChEMBL document CHEMBL1155000, “Discovery of a novel series of Notch-sparing gamma-secretase inhibitors” (Bioorg Med Chem Lett, 2008):

Experiment: Selectivity ratio of EC50 for gamma-secretase to EC50 for mouse notch

| Ratio EC50 | Compound |
| --- | --- |
| 9 | CC[C@H](C)[C@@H](CO)NS(=O)(=O)c1ccc(Br)cc1 |
| 3.7 | CC[C@H](C)[C@@H](CO)NS(=O)(=O)c1ccc(Cl)cc1 |
